Amino acid sequences for entries named in this document (tags omitted). A change or cut given only in a name is not applied to a line headed by its entry.
UniProt O00329: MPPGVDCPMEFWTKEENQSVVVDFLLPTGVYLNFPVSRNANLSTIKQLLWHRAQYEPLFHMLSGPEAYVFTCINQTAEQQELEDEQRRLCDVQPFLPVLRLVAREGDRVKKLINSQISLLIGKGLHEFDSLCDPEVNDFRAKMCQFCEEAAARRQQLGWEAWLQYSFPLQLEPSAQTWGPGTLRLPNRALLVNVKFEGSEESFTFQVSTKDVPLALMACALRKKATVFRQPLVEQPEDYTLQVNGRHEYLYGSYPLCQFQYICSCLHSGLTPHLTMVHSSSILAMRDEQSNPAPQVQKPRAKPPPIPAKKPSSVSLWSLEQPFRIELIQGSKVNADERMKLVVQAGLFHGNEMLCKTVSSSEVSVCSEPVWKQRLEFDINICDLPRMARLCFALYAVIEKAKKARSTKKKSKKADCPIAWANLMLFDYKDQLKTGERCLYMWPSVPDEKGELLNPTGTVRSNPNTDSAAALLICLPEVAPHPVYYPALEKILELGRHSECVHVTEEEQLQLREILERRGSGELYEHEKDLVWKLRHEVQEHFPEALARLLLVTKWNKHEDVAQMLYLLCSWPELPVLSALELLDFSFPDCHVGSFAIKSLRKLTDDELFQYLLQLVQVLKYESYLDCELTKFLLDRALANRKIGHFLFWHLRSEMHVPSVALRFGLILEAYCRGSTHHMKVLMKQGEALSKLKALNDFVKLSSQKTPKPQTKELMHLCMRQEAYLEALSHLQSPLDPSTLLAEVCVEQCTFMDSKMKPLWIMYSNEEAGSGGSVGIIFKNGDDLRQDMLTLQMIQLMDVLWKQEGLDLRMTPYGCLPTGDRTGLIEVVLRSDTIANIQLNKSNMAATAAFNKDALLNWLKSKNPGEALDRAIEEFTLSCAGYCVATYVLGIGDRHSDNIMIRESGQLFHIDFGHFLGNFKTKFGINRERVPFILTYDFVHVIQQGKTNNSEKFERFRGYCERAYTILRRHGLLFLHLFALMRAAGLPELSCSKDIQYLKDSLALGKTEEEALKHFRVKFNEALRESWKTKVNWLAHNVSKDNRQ

The target in this assay is GST-tagged PIK3Cδ in complex with PIK3R1 (Homo sapiens (Human), UniProt O00329). The assay is described as follows: biochemical.
By IC50 is commonly meant the concentration that gives 50% inhibition. Low values mean greater potency in that assay, high ones weaker potency in that assay. In turn, `Cc1cc(F)c(-c2cc(CN3CCC(F)(F)CC3)c3c(N)ncnn23)cc1C(=O)N[C@@H]1CN(C(=O)[C@@](C)(O)C(F)(F)F)C[C@@H]1F` [Example 1658, 5-{4-amino-5-[(4,4-difIuoropiperidin-1-yl)methyl]pyrrolo[2,1-f][1,2,4]triazin-7-yl}-4-fluoro-N-[(3R,4S)-4-fluoro-1-[(2R)-3,3,3-trifluoro-2-hydroxy-2-methylpropanoyl]pyrrolidin-3-yl]-2-methylbenzamide] had an IC50 of 9.15 µM. To `Cc1cc(F)c(-c2cc(CN3CCC(F)(F)CC3)c3c(N)ncnn23)cc1C(=O)N[C@@H]1CN(C(=O)CC(C)C)C[C@@H]1F` [Example 1659, 5-{4-amino-5-[(4,4-difIuoropiperidin-1-yl)methyl]pyrrolo[2,1-f][1,2,4]triazin-7-yl}-4-fluoro-N-[(3R,4S)-4-fluoro-1-(3-methylbutanoyl)pyrrolidin-3-yl]-2-methylbenzamide] belongs > 15 µM. For `Cc1cc(F)c(-c2cc(CN3CCC(F)(F)CC3)c3c(N)ncnn23)cc1C(=O)N[C@@H]1CN(C(=O)C(C)(C)F)C[C@@H]1F` [Example 1660, 5-{4-amino-5-[(4,4-difluoropiperidin-1-yl)methyl]pyrrolo[2,1-f][1,2,4]triazin-7-yl}-4-fluoro-N-[(3R,4S)-4-fluoro-1-(2-fluoro-2-methylpropanoyl)pyrrolidin-3-yl]-2-methylbenzamide], the IC50 is > 15 µM.

Turning to `COc1ncc(-c2cc(C(F)(F)F)c3c(N)ncnn23)cc1C(=O)NC1CCCC(c2ccccc2)C1` (stereo not drawn) [Example 1689, 5-(4-amino-5-(trifluoromethyl)pyrrolo[2,1-f][1,2,4]triazin-7-yl)-2-methoxy-N-(3-phenylcyclohexyl)nicotinamide], the IC50 is > 5 µM. `COc1ncc(-c2cc(CN3CCCCN3)c3c(N)ncnn23)cc1C(=O)N[C@@H]1CN(C(=O)C2CC(F)(F)C2)C[C@@H]1F` [Example 1716, 5-(4-amino-5-((tetrahydropyridazin-1(2H)-yl)methyl)pyrrolo[2,1-f][1,2,4]triazin-7-yl)-N-((3R,4S)-1-(3,3-difluorocyclobutane-1-carbonyl)-4-fluoropyrrolidin-3-yl)-2-methoxynicotinamide] had an IC50 of 12.7 µM. Next, `COc1ncc(-c2cc(CN3CCOCC3)c3c(N)ncnn23)cc1C(=O)N[C@@H]1CN(C(=O)OCC(F)(F)F)C[C@@H]1F` [Example 1717, 2,2,2-trifluoroethyl (3R,4S)-3-(5-(4-amino-5-(morpholinomethyl)pyrrolo[2,1-f][1,2,4]triazin-7-yl)-2-methoxynicotinamido)-4-fluoropyrrolidine-1-carboxylate]: > 15 µM. To `COc1ncc(-c2cc(CN3CCOCC3)c3c(N)ncnn23)cc1C(=O)N[C@@H]1CN(S(=O)(=O)CCC(F)(F)F)C[C@@H]1F` [Example 1718, 5-(4-amino-5-(morpholinomethyl)pyrrolo[2,1-f][1,2,4]triazin-7-yl)-N-((3R,4S)-4-fluoro-1-((3,3,3-trifluoropropyl)sulfonyl)pyrrolidin-3-yl)-2-methoxynicotinamide] belongs > 15 µM; to `COc1ncc(-c2cc(CN3CCOCC3)c3c(N)ncnn23)cc1C(=O)N[C@@H]1CN(S(=O)(=O)CC(F)(F)F)C[C@@H]1F` [Example 1719, 5-(4-amino-5-(morpholinomethyl)pyrrolo[2,1-f][1,2,4]triazin-7-yl)-N-((3R,4S)-4-fluoro-1-((2,2,2-trifluoroethyl)sulfonyl)pyrrolidin-3-yl)-2-methoxynicotinamide], > 15 µM. To `Cc1ncc(-c2cc(C(F)(F)F)c3c(N)ncnn23)cc1C(=O)Nc1ccn(Cc2ccc(F)cc2)n1` [Example 1810, 5-(4-amino-5-(trifluoromethyl)pyrrolo[2,1-f][1,2,4]triazin-7-yl)-N-(1-(4-fluorobenzyl)-1H-pyrazol-3-yl)-2-methylnicotinamide] belongs 0.053 µM.

The values are drawn from patent US11618753B2 (priority 2018, dated 2023).
